The values below are quoted from earlier work in patent publication US20070190132A1, “Pharmaceutical compositions for oral and topical administration” (IVAX-CR a.s., priority 1999, published 2007).

For the series the following is noted: hydrates formed on standing.

As to paclitaxel hydrates, the “equilibrium concentration in water” value was 0.3 to 0.6 µg/mL.
